The record followed here is patent US6677431B2, “Design, preparation, and properties of antibacterial β-peptides” (The Trustees of the University of Pennsylvania, priority 1999, dated 2004).

This series is described as follows: Hemolysis assay, 50% lysis of RBC's. Type of series: cell-based. Conditions: human, 0.25% suspension of human erythrocytes (RBCs), pH 7; under the hemolysis conditions of Group I peptides; read-out: LD50. The protocol: The biological activities of these peptides were measured using human erythrocytes and E. coli as models for mammalian and bacterial cells, respectively. Hemolysis was monitored in 10 mM Tris, 150 mM NaCl, pH 7.0, while the bacterial assay was conducted in minimal media M9 (Table 1); both of these solutions are sufficiently transparent to allow CD and ultracentrifugation measurements (supplementary material). Under the assay conditions, the peptides gave CD spectra similar to those in Tris buffer, with the exception of H-(β^3-HLeu-β^3-HLys-β^3-HLeu)n-OH, n=5 and 6.
∇in M9 medium (data from Hamuro et al., ref. 5) # In M9 medium.+Hemolysis experiments were performed by incubating a 0.25% suspension of human RBc's in 10 mM Tris buffer containing […] at pH 7.0 with varying amounts of peptide. The hemolytic dose required to lyse 50% of the RBC's is reported as the HD50.
Hemolysis experiments were carried out by incubating 0.25% suspension of human erythrocytes (RBC's) with peptides of different concentrations in 150 mM sodium choloride, 10 mM Tris buffer, pH 7.0. The sample was prepared by combining 400 μL of the RBC suspension and […] of the peptide solution. After incubated the sample at 37— C. for 1 hour, the sample was centrifuged at 14,000 rpm for 5 min, and the OD414 of the supernatant was measured. Mellitin (50 μM) was used to get 100% hemolysis. […]

For `CC[C@H](C)[C@H](NC(=O)CN)C(=O)NCC(=O)N[C@@H](C)C(=O)N[C@H](C(=O)N[C@@H](CC(C)C)C(=O)N[C@@H](CCCCN)C(=O)N[C@H](C(=O)N[C@@H](CC(C)C)C(=O)N[C@H](C(=O)N[C@H](C(=O)NCC(=O)N[C@@H](CC(C)C)C(=O)N1CCC[C@H]1C(=O)N[C@@H](C)C(=O)N[C@@H](CC(C)C)C(=O)N[C@H](C(=O)N[C@@H](CO)C(=O)N[C@@H](Cc1c[nH]c2ccccc12)C(=O)N[C@H](C(=O)N[C@@H](CCCCN)C(=O)N[C@@H](CCCNC(=N)N)C(=O)N[C@@H](CCCCN)C(=O)N[C@@H](CCCNC(=N)N)C(=O)N[C@@H](CCC(N)=O)C(=O)N[C@@H](CCC(N)=O)C(N)=O)[C@@H](C)CC)[C@@H](C)CC)[C@@H](C)O)[C@@H](C)O)C(C)C)C(C)C` [melittin, reference compound], the HC50 at 1 h was ~500 nM.
